This assay deals with KOP receptor (Homo sapiens, UniProt P41145). Put plainly: G protein bias from BRET-based G protein activation and arrestin recruitment assays. Format: cell-based.

Sequences of proteins named here, by UniProt entry; tags and fusion partners are left off. A change or cut given only in a name is not applied to a line headed by its entry.
UniProt P41145: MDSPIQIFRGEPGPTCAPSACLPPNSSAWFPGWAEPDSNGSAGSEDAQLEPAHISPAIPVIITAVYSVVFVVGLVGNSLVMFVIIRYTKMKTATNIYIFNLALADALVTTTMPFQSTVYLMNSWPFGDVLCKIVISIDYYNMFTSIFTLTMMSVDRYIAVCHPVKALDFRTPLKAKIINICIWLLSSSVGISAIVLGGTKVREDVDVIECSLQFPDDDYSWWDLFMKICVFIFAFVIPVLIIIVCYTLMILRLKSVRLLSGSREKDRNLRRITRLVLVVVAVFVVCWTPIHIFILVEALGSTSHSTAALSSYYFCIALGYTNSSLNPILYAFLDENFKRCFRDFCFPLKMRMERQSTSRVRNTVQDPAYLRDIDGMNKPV

“Also recorded” adds a separate entry of the source.

As to `NC(N)=Nc1ccc2c3c([nH]c2c1)[C@@H]1Oc2c(O)ccc4c2[C@@]12CCN(CC1CC1)[C@H](C4)[C@]2(O)C3` [6′-GNTI, 6′-guanidinonaltrindole], the “bias toward G protein activation over arrestin” value was “showed bias toward G protein activation over arrestin; also recorded: biased toward G protein activation”.
